Four proteins from paper PMC8058707 can be followed below.

Data set [1] is described as follows: immunoblot of total YAP after erastin 8 h. The settings on record: glycan gained; control: erastin alone, H1975 cells. Background: A western blot detects proteins with antibodies after separation by electrophoresis.
The nature of data set [2]: anti-YAP IP, anti-Ub immunoblot. The following applies: glycan gained; control: control H1975 cells.

B1: Yes-associated protein (YAP): GlcN (5 mM) (protein)
parent chain: MDPGQQPPPQPAPQGQGQPPSQPPQGQGPPSGPGQPAPAATQAAPQAPPAGHQIVHVRGDSETDLEALFNAVMNPKTANVPQTVPMRLRKLPDSFFKPPEPKSHSRQASTDAGTAGALTPQHVRAHSSPASLQLGAVSPGTLTPTGVVSGPAATPTAQHLRQSSFEIPDDVPLPAGWEMAKTSSGQRYFLNHIDQTTTWQDPRKAMLSQMNVTAPTSPPVQQNMMNSASGPLPDGWEQAMTQDGEIYYINHKNKTTSWLDPRLDPRFAMNQRISQSAPVKQPPPLAPQSPQGGVMGGSNSNQQQQMRLQQLQMEKERLRLKQQELLRQAMRNINPSTANSPKCQELALRSQLPTLEQDGGTQNPVSSPGMSQELRTMTTNSSDPFLNSGTYHSRDESTDSGLSMSSYSVPRTPDDFLNSVDEMDTGDTINQSTLPSQQNRFPDYLEAIPGTNVDLGTLEGDGMNIEGEELMPSLQEALSSDILNDMESVLAATKLDKESFLTWL
For the protein B1, the expression_or_secretion result in data set [1] is “increases”.

B2: Yes-associated protein (YAP): GFPT1S205A expression (protein)
parent chain: B1 parent chain
Take B2: the expression_or_secretion entry in data set [1] is “increases”.

B3: Yes-associated protein (YAP): GlcNAc (5 mM) (protein)
parent chain: B1 parent chain
For B3, the expression_or_secretion entry in data set [1] is reported as “increases”.

B4: Yes-associated protein (YAP): GFPT1 overexpression (protein)
parent chain: B1 parent chain
Consider B4, for which the “other: ubiquitination” value in data set [2] is reported as “decreases”.
